Laboratory results published in patent US7829280B2, “Process for reducing interferences in luciferase enzyme assays” (LuminUltra Technologies Ltd., priority 2007, dated 2010).

Amino acid sequences for entries named in this document (tags omitted).
UniProt P08659, whole entry: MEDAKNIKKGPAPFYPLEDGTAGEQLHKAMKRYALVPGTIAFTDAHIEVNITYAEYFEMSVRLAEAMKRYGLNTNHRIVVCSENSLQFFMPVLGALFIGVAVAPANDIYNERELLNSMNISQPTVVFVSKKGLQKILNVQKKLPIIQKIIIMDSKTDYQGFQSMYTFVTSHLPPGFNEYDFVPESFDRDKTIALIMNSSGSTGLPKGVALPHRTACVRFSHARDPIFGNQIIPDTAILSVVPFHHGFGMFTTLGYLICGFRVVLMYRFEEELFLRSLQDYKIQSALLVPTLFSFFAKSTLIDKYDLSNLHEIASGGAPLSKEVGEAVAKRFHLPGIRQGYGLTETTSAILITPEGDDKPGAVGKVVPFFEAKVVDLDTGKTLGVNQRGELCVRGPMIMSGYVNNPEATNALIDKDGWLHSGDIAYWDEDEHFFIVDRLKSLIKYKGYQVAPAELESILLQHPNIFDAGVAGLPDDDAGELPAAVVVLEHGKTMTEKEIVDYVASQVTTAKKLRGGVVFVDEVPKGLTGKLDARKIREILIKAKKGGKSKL

Experiments:
Assay type in all cases: biochemical
firefly luciferase [1] = target: T1, firefly luciferase (Photinus pyralis, UniProt P08659); experiment: Combined treatment with soluble (β-cyclodextrin) and insoluble (IRC-748) neutralizers of ADBAC inhibition of firefly luciferase; conditions: for RLU: β-cyclodextrin 3,750 mg/L, resin 1 part per 3 parts
Protocol: Other experiments determined that insoluble agents could be used in combination with soluble agents to cause further reductions in enzyme inhibition. An initial solution containing 7200 mg/L ADBAC and 1 ng ATP per mL was prepared in phosphate buffer. A stronger concentration of ADBAC was used in this experiment to facilitate the observation of the degree of neutralization. Four dilution series were prepared from this stock solution. One series was diluted only in a phosphate buffer. Another identical series was prepared in the phosphate buffer but was pre-treated with IRC-748 chelating resin (3 parts solution treated with one part resin) prior to assaying for ATP. The third dilution series was made in a phosphate buffer containing p-cyclodextrin (a soluble compound that can neutralize ADBAC) so that each member of the series contained 3,750 β-cyclodextrin. The fourth series was prepared in the same way as the third series, except that each member of the series was pre-treated with IRC-748 chelating resin (3 parts solution treated with one part resin) prior to assaying for ATP. All solutions were assayed for ATP by mixing 100 microliters of solution with 100 microliters of luciferase reagent and measuring the light produced in a Kikkoman luminometer.
The experiment described in Example 5 compares the ability of a soluble agent (β-cyclodextrin) and an insoluble agent (chelating resin, IRC-748) and their combination to neutralize the inhibition of the bioluminescent reaction catalyzed by firefly luciferase.
In the first members of the dilutions series, the ATP solution contained 0.5 ng ATP per mL and 3600 mg/L ADBAC. A concentrate of cyclodextrin was added to the ATP solutions in some of the tests to maintain concentration of 3,750 mg/L through the dilution series.

firefly luciferase [2] = target: T1, firefly luciferase; experiment: Firefly luciferase assay of ATP standard solution containing ADBAC, with and without chelating resin pre-treatment; conditions: 10 ng/mL ATP
Protocol: A trisodium phosphate buffer solution containing 10 nanograms ATP per mL and 1000 mg/L of alkyl dimethybenzyl ammonium chloride (ADBAC) was assayed for ATP by mixing 100 microliters of this solution with 100 microliters of luciferase reagent. The light produced in this reaction was measured in a luminometer (Kikkoman C-100 Lumitester). Several dilutions of this ATP solution were also prepared in phosphate buffer and tested. In addition, a 3 mL portion of this solution was mixed with 1 mL of a chelating resin (IRC748, Rohm and Haas Company) and similarly diluted in phosphate buffer, then assayed for ATP.
Table 1 outlines the results obtained from an experiment of assaying a 10 ng/mL ATP standard solution in phosphate buffer containing 1000 mg/L alkyl dimethybenzyl ammonium chloride (ADBAC), following dilution in a phosphate buffer, with and without pre-treatment with the chelating resin IRC-748.

firefly luciferase [3] = target: T1, firefly luciferase; experiment: Firefly luciferase assay for ATP in ADBAC extract of wastewater effluent, with and without chelating resin; conditions: dilution of ADBAC (1000 mg/L) in ATP extract ⅛, resin 1 mL per 3 mL extract
Protocol: In this experiment, a phosphate buffer also containing 1000 mg/L ADBAC is used to extract ATP from a sample containing microorganisms. 2 mL of a sample from the effluent of a municipal sewage plant was mixed with 2 mL of the ADBAC solution. The ATP released by this process was measured in a Kikkoman luminometer by mixing 100 microliters of the mixture and combining it with 100 microliters of a luciferase assay mixture. Several dilutions of this ATP extract were also prepared in phosphate buffer and tested. In addition, a 3 mL portion of the ATP extract was mixed with 1 mL of a chelating resin (IRC748, Rohm and Haas Company) and similarly diluted in phosphate buffer, then assayed for ATP.
The ATP extract in this experiment was produced by mixing a solution containing 1000 mg/L ADBAC in phosphate buffer. Further dilutions were made in a phosphate buffer. The chelating resin was IRC-748. The resin treatment consisted of mixing 1 mL of resin with 3 mL of extract, then allowing the resin beads to settle before ATP analysis.

alkyl dimethybenzyl ammonium chloride [ADBAC]
RLU (firefly luciferase [1]; dilution 1/16 of 7200 mg/L ADBAC, 1 ng ATP per mL stock): 423 RLU
RLU (firefly luciferase [1]; dilution ¼ of 7200 mg/L ADBAC, 1 ng ATP per mL stock): 6 RLU
RLU (firefly luciferase [1]; dilution ½ of 7200 mg/L ADBAC, 1 ng ATP per mL stock (3600 mg/L ADBAC, 0.5 ng/mL ATP)): 5 RLU
RLU (firefly luciferase [1]; dilution ⅛ of 7200 mg/L ADBAC, 1 ng ATP per mL stock): 58 RLU
dilution required to prevent suppression of enzyme activity (firefly luciferase [1]; neither resin nor cyclodextrin treatment, 7200 mg/L ADBAC stock): ≥ 16 fold
RLU (Relative Light Units) (firefly luciferase [2]; dilution 1/16 in phosphate buffer, 1000 mg/L ADBAC stock, resin 1 mL per 3 mL): 6,036 RLU
RLU (Relative Light Units) (firefly luciferase [2]; dilution none, 1000 mg/L ADBAC in phosphate buffer, resin 1 mL per 3 mL solution): 1,254 RLU
RLU (Relative Light Units) (firefly luciferase [2]; dilution ¼ in phosphate buffer, 1000 mg/L ADBAC stock, resin 1 mL per 3 mL): 16,362 RLU
RLU (Relative Light Units) (firefly luciferase [2]; dilution ½ in phosphate buffer, 1000 mg/L ADBAC stock, resin 1 mL per 3 mL): 1,549 RLU
RLU (Relative Light Units) (firefly luciferase [2]; dilution ⅛ in phosphate buffer, 1000 mg/L ADBAC stock, resin 1 mL per 3 mL): 11,725 RLU
RLU (firefly luciferase [3]): 6,512 RLU
